Measured values published in patent EP4831160A1, “TRISUBSTITUTED QUINAZOLINE DERIVATIVE, ACID ADDITION SALT THEREOF, AND PHARMACEUTICAL COMPOSITION AND USE THEREOF” (dated 2026).

Columns and labels:
[1] = Systematic characterization of different salt crystal forms (comparison of properties); settings: for solid stability: impurity RRT= 0.29 / solid stability: impurity RRT= 0.78 / solid stability: impurity RRT= 0.89 / solid stability: purity / solid stability: impurity RRT= 0.36: sealed centrifuge tube, kept at RT; for solid stability: impurity RRT= 0.36: ND: not detected
[2] = Systematic characterization of free base crystal forms (comparison of properties); settings: for solid stability: purity / solid stability: RRT= 0.29 / solid stability: RRT= 0.36 / solid stability: RRT= 0.62 / solid stability: RRT= 0.64 / solid stability: RRT= 0.78 / solid stability: RRT= 0.89 / solid stability: RRT= 0.91: sealed centrifuge tube, kept at RT; for solid stability: RRT= 0.29: impurity at RRT 0.29; for solid stability: RRT= 0.36: impurity at RRT 0.36; for solid stability: RRT= 0.62: impurity at RRT 0.62; for solid stability: RRT= 0.64: impurity at RRT 0.64; for solid stability: RRT= 0.89: impurity at RRT 0.89; for solid stability: RRT= 0.91: impurity at RRT 0.91
[3] = tested on: BT-474 human breast cancer cell line; test: In vivo efficacy study, subcutaneous BT-474 xenograft, p.o. QD×21; settings: 20 mg/kg, at the end of treatment, share of mice
[4] = Pharmacokinetics in rats, intravenous and oral administration
[5] = impurity at RRT 0.78, at day 23
[6] = second value printed with "+" below the RRT 0.78 value, at day 23

Row | SMILES | solid stability: impurity RRT= 0.29 ([1]; at day 0) | solid stability: impurity RRT= 0.78 ([1]; at day 0) | solid stability: impurity RRT= 0.89 ([1]; at day 0) | solid stability: purity ([1]; at day 0) | solid stability: purity ([2]; at day 0) | solid stability: purity ([2]; at day 23) | solid stability: RRT= 0.29 ([2]; at day 0) | solid stability: RRT= 0.29 ([2]; at day 23) | solid stability: RRT= 0.36 ([2]; at day 0) | solid stability: RRT= 0.36 ([2]; at day 23) | solid stability: RRT= 0.62 ([2]; at day 0) | solid stability: RRT= 0.62 ([2]; at day 23) | solid stability: RRT= 0.64 ([2]; at day 0) | solid stability: RRT= 0.64 ([2]; at day 23) | solid stability: RRT= 0.78 ([2]; impurity at RRT 0.78, at day 0) | solid stability: RRT= 0.78 [2, 5] | solid stability: RRT= 0.89 ([2]; at day 0) | solid stability: RRT= 0.89 ([2]; at day 23) | solid stability: RRT= 0.91 ([2]; at day 0) | solid stability: RRT= 0.91 ([2]; at day 23) | other results
1 | CCOc1cc2ncnc(Nc3ccc(Oc4ccc(F)cc4)cc3)c2cc1NC(=O)/C=C/CN(C)C.O=C(O)/C=C/C(=O)O | 0.04% | 0.05% | 0.07% | 99.67% |  |  |  |  |  |  |  |  |  |  |  |  |  |  |  |  | solid stability: impurity RRT= 0.29 ([1]; at day 24): 0.30%; solid stability: impurity RRT= 0.78 ([1]; at day 24): 0.05%; solid stability: impurity RRT= 0.89 ([1]; at day 24): 0.07%; solid stability: purity ([1]; at day 24): 99.51%
2 | CCOc1cc2ncnc(Nc3ccc(Oc4ccc(F)cc4)cc3)c2cc1NC(=O)/C=C/CN(C)C [free base crystal form F-3] |  |  |  |  | 99.70% | 99.68% | 0.07% | 0.08% | 0.02% | 0.04% | 0.03% | 0.03% | 0.04% | 0.04% | 0.02% | 0.03% | 0.03% | 0.03% | 0.02% | 0.01% | moisture absorption% (80% RH for 24h) [2]: 0.04%
3 | CCOc1cc2ncnc(Nc3ccc(Oc4ccc(F)cc4)cc3)c2cc1NC(=O)/C=C/CN(C)C.Cc1ccc(S(=O)(=O)O)cc1 | 0.04% | 0.07% | 0.07% | 99.33% |  |  |  |  |  |  |  |  |  |  |  |  |  |  |  |  | solid stability: impurity RRT= 0.36 ([1]; at day 0): 0.01%; solid stability: impurity RRT= 0.29 ([1]; at day 24): 0.06%; solid stability: impurity RRT= 0.78 ([1]; at day 24): 0.19%; solid stability: impurity RRT= 0.89 ([1]; at day 24): 0.07%; solid stability: impurity RRT= 0.36 ([1]; at day 24): 0.02%
4 | CCOc1cc2ncnc(Nc3ccc(Oc4ccc(F)cc4)cc3)c2cc1NC(=O)/C=C/CN(C)C.O=C(O)/C=C\C(=O)O [maleate crystal form B] |  |  |  |  |  |  |  |  |  |  |  |  |  |  |  |  |  |  |  |  | solid stability: impurity RRT= 0.36 ([1]; at day 0, maleate): 0.06%; solid stability: impurity RRT= 0.29 ([1]; at day 0, maleate): 0.07%; solid stability: impurity RRT= 0.78 ([1]; at day 0, maleate): 0.07%; solid stability: impurity RRT= 0.89 ([1]; at day 0, maleate): 0.08%; solid stability: purity ([1]; at day 0, maleate): 99.48%; solid stability: impurity RRT= 0.36 ([1]; at day 24, maleate): 0.06%; solid stability: impurity RRT= 0.29 ([1]; at day 24, maleate): 0.07%; solid stability: impurity RRT= 0.78 ([1]; at day 24, maleate): 0.07%; solid stability: impurity RRT= 0.89 ([1]; at day 24, maleate): 0.08%; solid stability: purity ([1]; at day 24, maleate): 99.49%
5 | CCOc1cc2ncnc(Nc3ccc(Oc4ccc(F)cc4)cc3)c2cc1NC(=O)/C=C/CN(C)C [free base crystal form F-1] |  |  |  |  | 99.61% | 99.61% | 0.06% | 0.06% | 0.02% | 0.01% | 0.03% | 0.03% | 0.05% | 0.05% | 0.06% | 0.08% | 0.04% | 0.05% | 0.035% | 0.03% | moisture absorption% (80% RH for 24h) [2]: 0.09%
6 | CCOc1cc2ncnc(Nc3ccc(Oc4ccc(F)cc4)cc3)c2cc1NC(=O)/C=C/CN(C)C [free base crystal form F-6] |  |  |  |  | 99.66% | 99.63% | 0.04% | 0.03% | 0.01% | 0.00% | 0.03% | 0.06% | 0.05% | 0.05% | 0.05% | 0.05% | 0.06% | 0.04% | 0.06% | 0.02% | solid stability: RRT= 0.78 [2, 6]: +0.01%
7 | CCOc1cc2ncnc(Nc3ccc(Oc4ccc(F)cc4)cc3)c2cc1NC(=O)/C=C/CN(C)C.Cl | 0.05% | 0.05% | 0.06% | 99.66% |  |  |  |  |  |  |  |  |  |  |  |  |  |  |  |  | solid stability: impurity RRT= 0.36 ([1]; at day 0): 0.01%; solid stability: impurity RRT= 0.29 ([1]; at day 24): 0.05%; solid stability: impurity RRT= 0.78 ([1]; at day 24): 0.05%; solid stability: impurity RRT= 0.89 ([1]; at day 24): 0.07%; solid stability: purity ([1]; at day 24): 99.66%
8 | CCOc1cc2ncnc(Nc3ccc(Oc4ccc(F)cc4)cc3)c2cc1NC(=O)/C=C/CN(C)C.O=S(=O)(O)O | 0.06% | 0.06% | 0.07% | 99.61% |  |  |  |  |  |  |  |  |  |  |  |  |  |  |  |  | Solubility (25 °C, 30 min) EtOH ([1]; EtOH, 25 °C, 30 min, mostly printed as mass of sample / volume of solvent): <100 µg/mL; solid stability: impurity RRT= 0.29 ([1]; at day 24): 0.06%; solid stability: impurity RRT= 0.78 ([1]; at day 24): 0.08%; solid stability: impurity RRT= 0.89 ([1]; at day 24): 0.07%; solid stability: purity ([1]; at day 24): 99.54%
9 | CCOc1cc2ncc(C#N)c(Nc3ccc(OCc4ccccn4)c(Cl)c3)c2cc1NC(=O)/C=C/CN(C)C |  |  |  |  |  |  |  |  |  |  |  |  |  |  |  |  |  |  |  |  | mice that achieved complete tumor regression [3]: 87.5%
10 | COc1cc2ncnc(Nc3ccc(Oc4ccc(F)cc4)cc3)c2cc1NC(=O)/C=C/CN(C)C |  |  |  |  |  |  |  |  |  |  |  |  |  |  |  |  |  |  |  |  | Rat IV 1 mpk AUC0-t ([4]; rat, IV, 1 mpk): 240 (h*ng/mL); F% ([4]; rat, bioavailability, oral 10 mpk vs IV 1 mpk): 48%; Rat Oral 10 mpk AUC0-t ([4]; rat, oral, 10 mpk): 1152 (h*ng/mL); Cmax ([4]; rat, route not printed in the row, stands below the Rat Oral 10 mpk row): 73.5 ng/mL; bioavailability ([4]; rats, oral vs intravenous): 48%
11 | CCOc1cc2ncnc(Nc3ccc(Oc4ccc(F)cc4)cc3)c2cc1NC(=O)/C=C/CN(C)C [free base crystal form F-5] |  |  |  |  | 99.13% | 99.06% | 0.01% | 0.02% | 0.01% | 0.00% | 0.53% | 0.53% | 0.05% | 0.07% | 0.12% | 0.08% | 0.07% | 0.04% | 0.07% | 0.03% | solid stability: RRT= 0.78 [2, 6]: +0.06%
12 | CCOc1cc2ncnc(Nc3ccc(Oc4ccc(F)cc4)cc3)c2cc1NC(=O)/C=C/CN(C)C [free base crystal form F-4] |  |  |  |  | 99.68% | 99.65% | 0.06% | 0.06% | 0.02% | 0.01% | 0.01% | 0.03% | 0.04% | 0.04% | 0.02% | 0.03% | 0.07% | 0.05% | 0.07% | 0.02% | solid stability: RRT= 0.78 [2, 6]: +0.01%
